# Read-outs that look alike come from different tables or passages of the source.
# Tests used:
# A-375 cells = assay: alamarBlue proliferation assay with A-375 cells; settings: read-out: Activity on A-375: IC50, DMEM medium, 10% FBS
# From the text: (§1) These hyperproliferative processes can be benign or malignant and include hyperplasia, neoplasia, cancer and pre-cancerous lesions, and metastases. The antiproliferative activities of compounds falling under general formula (I) were investigated on human primary epidermal keratinocytes (HPEK) and human, murine and canine cell lines derived from hyperproliferative tissue or different cancer types, including MDA-MB-231, ZR-75-30, HCC-1395, HCC-1937, and T-47D all originating from cancer of the breast, JURKAT, RPMI-8402, LOUCY, TANQUE, REC-1, HL-60, NB-4 all originating from different types of blood cancer including lymphoma and leukemia of T-cells, B-cells and myeloid cells, TT originating from cancer of the neuroendocrine system, HeLa originating from cancer of the cervix, 23132/87, SW-948, and HCT-116 all originating from cancer of the gastrointestinal tract including stomach and colon, BHY originating from cancer of the mucosal epithelium, A-431 originating from cancer of the skin, HEP-G2 originating from cancer of the liver, NCI-H460 and A-549 both originating from cancer of the lung, PANC-1 originating from cancer of the pancreas, U-87 MG originating from cancer of the brain, A-375 and RVH-421 both originating from cancer of melanocytes, SW-1353 originating from cancer of bone-derived chondrocytes, C2C12 a mouse cell line originating from hyperproliferative muscle progenitor cells, LL/2 a mouse cell line originating from cancer of the lung, CF21.T a dog cell line originating from cancer of the connective tissue. To this end, according cells were seeded into 96-well plates (CORNING #3598) suitable for fluorescence assays at following initial cell numbers: 1000 cells per well for HPEK; 3000 cells per well for MDA-MB-231, 8000 cells per well for ZR-75-30, 1500 cells per well for HCC-1395, 1500 cells per well for HCC-1937, 3000 cells per well for T-47D, 1500 cells per well for JURKAT, 5000 cells per well for RPMI-8402, 9000 cells per well for LOUCY, 1500 cells per well for TANQUE, 9000 cells per well for REC-1, 1000 cells per well for HL-60, 1000 cells per well for NB-4, 9000 cells per well for TT, 2000 cells per well for HeLa, 2000 cells per well for 23132/87, 9000 cells per well for SW-948, 700 cells per well for HCT-116, 1500 cells per well for BHY, 700 cells per well for A-431, 1500 cells per well for HEP-G2, 500 cells per well for NCI-H460, 1000 cells per well for A-549, 1500 cells per well for PANC-1, 2500 cells per well for U-87 MG, 700 cells per well for A-375, 1500 cells per well for RVH-421, 2000 cells per well for SW-1353, 500 cells per well for C2C12, 500 cells per well for LL/2, and 3000 cells per well for CF21.T. In a volume of 90 μL per well of culture medium the cells were treated with compounds at indicated final concentrations by adding 10 μL per well of 10× compound working solutions from 1:100 pre-diluted 1000× compound DMSO stock-solutions in H2O (Water For Injection, WFI, Fisher Scientific, Gibco™ #A12873) or with the empty carrier DMSO (AppliChem, #A3672) at 0.1% v/v as control yielding a final volume of 100 μL per well. At day 5 after starting the treatments the cells were subjected to the alamarBlue® Proliferation Assay (Bio-Rad Serotec GmbH, BUF012B) according to the protocol of the manufacturer. The readout was taken with a multi-well plate-reader (Tecan Spark®) in the fluorescence mode with applying a filter for excitation at 560 nm (band width 10 nm) and for emission at 590 nm (band width 10 nm). Treatment for maximum proliferation inhibition with the commercial cytotoxic compound (S)-(+)-camptothecin (Fluorochem #M01564) at a concentration of 10 μM was included on each plate for assay quality control. Some of the test compounds of the present invention may have been obtained and applied as their salt forms.
# (§2) The assays were performed in duplicate or more replicates of independent single experiments each containing a three- to six-fold replicate for every condition. […]
# NCI-H460 cells = assay: alamarBlue proliferation assay with NCI-H460 cells; settings: read-out: Activity on NCI-H460: IC50, RPMI 1640 medium, 10% FBS
# From the text: as §1, §2
# HCT-116 cells = assay: alamarBlue proliferation assay with HCT-116 cells; settings: read-out: Activity on HCT-116: IC50, McCoy's 5A medium, 10% FBS
# RVH-421 cells = assay: alamarBlue proliferation assay with RVH-421 cells (glucose-free L-15 medium); settings: read-out: Activity on RVH-421: IC50, Leibovitz's L-15 medium, 10% FBS, 0% CO2
# From the text: as §1, §2
# NB-4 cells = assay: alamarBlue proliferation assay with NB-4 cells; settings: read-out: Activity on NB-4: IC50, RPMI 1640 medium, 10% FBS
# TANQUE cells = assay: alamarBlue proliferation assay with TANQUE cells; settings: read-out: Activity on TANOUE: IC50, RPMI 1640 medium, 10% FBS
# BHY cells = assay: alamarBlue proliferation assay with BHY cells; settings: read-out: Activity on BHY: IC50, DMEM medium, 10% FBS
# HL-60 cells = assay: alamarBlue proliferation assay with HL-60 cells; settings: read-out: Activity on HL-60: IC50, RPMI 1640 medium, 10% FBS
# From the text: as §1, §2
# HPEKp cells = assay: proliferation assay with human epidermal keratinocyte progenitors (HPEKp), selectivity versus MDA-MB-231
# SW-948 cells = assay: alamarBlue proliferation assay with SW-948 cells (glucose-free L-15 medium); settings: read-out: Activity on SW-948: IC50, Leibovitz's L-15 medium, 10% FBS, 0% CO2
# From the text: as §1, §2
# MDA-MB-231 cells = assay: alamarBlue proliferation assay with MDA-MB-231 cells (glucose-free Leibovitz's L-15 medium)
# A-549 cells = assay: alamarBlue proliferation assay with A-549 cells; settings: read-out: Activity on A-549: IC50, DMEM medium, 10% FBS
# A-431 cells = assay: alamarBlue proliferation assay with A-431 cells; settings: read-out: Activity on A-431: IC50, DMEM medium, 10% FBS
# From the text: as §1, §2
# SW-1353 cells = assay: alamarBlue proliferation assay with SW-1353 cells (glucose-free L-15 medium); settings: read-out: Activity on SW-1353: IC50, Leibovitz's L-15 medium, 10% FBS, 0% CO2
# From the text: as §1, §2
# LL/2 cells = assay: alamarBlue proliferation assay with LL/2 cells; settings: read-out: Activity on LL/2: IC50; LL/2 murine Lewis lung carcinoma cells, DMEM medium, 10% FBS
# HEP-G2 cells = assay: alamarBlue proliferation assay with HEP-G2 cells; settings: read-out: Activity on HEP-G2: IC50, RPMI 1640 medium, 10% FBS
# [1] = read-out: Activity (HPEK): antiproliferative activity on HPEK cells, IC50 category, HPEK cells cultivated in CnT-Prime medium
# [2] = read-out: Activity (MDA): antiproliferative activity on MDA-MB-231 cells, IC50 category, MDA-MB-231 cells cultivated in glucose-free Leibovitz's L-15 medium
# [3] = read-out: Activity on MDA-MB-231 (IC50), glucose-free Leibovitz's L-15, 10% FBS, day 5, alamarBlue
# [4] = read-out: Activity (HPEK), HPEK cells (HPEKp), antiproliferative activity, class by IC50
# [5] = read-out: Activity (MDA), MDA-MB-231 cells, antiproliferative activity, class by IC50
Compound,IC50 (A-375 cells) [nM],IC50 (NCI-H460 cells) [µM],IC50 (HCT-116 cells) [nM],IC50 (HL-60 cells) [µM],IC50 (HPEKp cells; [1]) [µM],IC50 (SW-948 cells) [µM],IC50 (MDA-MB-231 cells; [2]) [nM],IC50 (MDA-MB-231 cells; [3]) [nM],IC50 (A-549 cells) [nM],IC50 (HPEKp cells; [4]) [µM],IC50 (MDA-MB-231 cells; [5]) [nM],IC50 (A-431 cells) [nM],IC50 (SW-1353 cells) [µM],IC50 (HEP-G2 cells) [nM],IC50 (RVH-421 cells) [nM],IC50 (NB-4 cells) [nM],IC50 (TANQUE cells) [nM],IC50 (BHY cells) [nM],IC50 (LL/2 cells) [nM]
COc1ccc(CN2CCN(C(=O)c3ccc(Oc4ccc(C5CCC6(CC5)SCCCS6)cc4C=O)cn3)CC2)cc1,≤ 200,–,–,–,–,–,–,–,–,–,–,–,–,–,–,–,–,–,–
COC1CCC(c2ccc(Oc3ccc(C(=O)N4CCN(Cc5ccc(Cl)cc5)CC4)cc3)cc2)CC1 (centres unmarked),≤ 200,–,–,–,–,–,–,≤ 200,≤ 1000,< 5,< 1000,–,–,–,–,–,–,–,–
COC1CCC(c2ccc(Oc3ccc(C(=O)N4CCN(Cc5ccc(Cl)cc5)CC4)cc3)c(O)c2)CC1 (centres unmarked),≤ 1000,–,–,–,–,–,–,–,≤ 1000,–,–,≤ 5000,–,–,–,–,–,–,–
COC1CCC(c2ccc(Oc3ccc(C(=O)N4CCN(Cc5ccc(Cl)cc5)CC4)nc3)cc2)CC1 (centres unmarked),≤ 200,–,–,–,–,–,–,≤ 200,≤ 200,< 10,< 1000,–,–,–,–,–,–,–,–
O=Cc1cc(C2CCCCC2)ccc1Oc1ccc(C(=O)N2CCN(Cc3ccc(OC(F)(F)F)cc3)CC2)cc1,≤ 200,–,≤ 200,–,–,–,–,–,≤ 200,–,–,≤ 200,–,–,–,≤ 200,≤ 200,≤ 200,≤ 1000
COC1CCC(c2ccc(Oc3ccc(C(=O)N4CCN(Cc5ccc(Cl)cc5)CC4)nc3)c(CO)c2)CC1 (centres unmarked),≤ 200,–,≤ 200,–,–,–,–,≤ 200,≤ 200,< 10,< 1000,≤ 200,–,≤ 200,–,≤ 200,≤ 200,≤ 200,≤ 200
O=C(c1ccc(Oc2ccc(C3CCCCC3)cc2CO)cc1)N1CCN(Cc2ccc(S(F)(F)(F)(F)F)cc2)CC1,≤ 200,–,≤ 200,–,–,–,–,–,≤ 200,–,–,≤ 200,–,–,–,≤ 200,≤ 200,≤ 200,≤ 200

# Further lines, with some results ahead:
IC50 (A-375 cells) [nM],IC50 (NCI-H460 cells) [µM],IC50 (HCT-116 cells) [nM],IC50 (HL-60 cells) [µM],IC50 (HPEKp cells; [1]) [µM],IC50 (SW-948 cells) [µM],IC50 (MDA-MB-231 cells; [2]) [nM],IC50 (MDA-MB-231 cells; [3]) [nM],IC50 (A-549 cells) [nM],IC50 (HPEKp cells; [4]) [µM],IC50 (MDA-MB-231 cells; [5]) [nM],IC50 (A-431 cells) [nM],IC50 (SW-1353 cells) [µM],IC50 (HEP-G2 cells) [nM],Compound,IC50 (RVH-421 cells) [nM],IC50 (NB-4 cells) [nM],IC50 (TANQUE cells) [nM],IC50 (BHY cells) [nM],IC50 (LL/2 cells) [nM]
–,≤ 5,≤ 5000,≤ 5,< 10,≤ 5,< 5000,≤ 5000,–,–,–,–,–,–,CN(c1ccc(C(=O)N2CCN(Cc3ccccc3)CC2)cc1)c1ccc(C2CCC3(CC2)OCCO3)cc1,≤ 5000,≤ 5000,≤ 5000,≤ 5000,–
–,≤ 20,–,≤ 5,> 10,≤ 5,< 1000,≤ 1000,≤ 5000,–,–,–,≤ 5,–,O=C(c1ccc(Oc2ccc(C3CCC4(CC3)OCCO4)cc2CO)cc1)N1CC2CC1CN2Cc1ccccc1 (centres unmarked),≤ 5000,–,–,–,–
–,≤ 5,–,≤ 5,–,≤ 5,–,≤ 200,–,–,–,–,–,–,Cn1cccc1CN1CCN(C(=O)c2ccc(Oc3ccc(C4CCC5(CC4)OCCO5)cc3CO)cc2)CC1,≤ 1000,–,–,–,–
–,≤ 5,–,≤ 5,< 10,≤ 1,< 1000,≤ 200,–,–,–,–,–,–,O=C(c1ccc(Oc2ccc(C3CCC4(CC3)OCCO4)cc2CO)cc1)N1CCN(Cc2ccc3ncccc3c2)CC1,≤ 200,–,–,–,–

# — patent US20260384421A1, “NOVEL COMPOUNDS THAT CAN BE USED AS THERAPEUTIC AGENTS” (published 2026)
